These results are taken from patent US5470951A, “Peptides for antagonizing the effects of amyloid βprotein” (City of Hope, priority 1993, dated 1995).

For assay [1] the following is noted: reference 25; cited from earlier work.
The test system of assay [2] is amnestic effects of β-(12-28) on retention of FAAT. Nature of the assay: Blocking of amnestic effect of β-(12-28) on retention of FAAT by ICV co-administered peptides. Format: in vivo, CD-1 male mice. As to conditions: β-(12-28) alone, 6 nmol ICV, groups of ten mice; vehicle alone 6.85 ± 0.20. Here is the method:
Test Animals. After one week in the laboratory, CD-1 male mice obtained from Charles River Breeding Laboratories were caged individually 24-28 hours prior to training and remained singly housed until retention was tested one week later. Animal rooms were on a 12-hour light/dark cycle with lights going on at the hour of 0600. Median body weight was 35 g, with a range of 33-38 g. Mice were assigned randomly to groups of ten in the experiments reported in Table 1, groups of 14 in the experiments reported in Table 2, and groups of 15 in FIG. 1 and were trained and tested between the hours of 0700 and 1500.
Peptides were dissolved in 8% vol/vol dimethyl sulfoxide and diluted to a final concentration of 0.001% dimethyl sulfoxide in saline. Upon testing for retention of FAAT after receiving post-training ICV administration of 2 μl of the above vehicle the mean numbers of trials to criterion±standard error of the mean (SEM for well trained mice and weakly trained mice were 6.85±0.20 and 9.07±0.25, respectively (see the paragraph below for definition of the two training paradigms).
Apparatus, training and Testing Procedures. The T-maze used for footshock active avoidance training (FAAT) consisted of a black plastic alley (46 cm long) with a start box at one end and two goal boxes (17.5 cm long) at the other. […]

Several values for one entry are separate records, joined by “and”; a condition that tells them apart may be missing. Equal entries are not always repeated.

Consider “β-(12-28): a peptide homologous to Aβ that is as potently amnestic as Aβ and shows amyloid-like aggregation”, for which the “amnestic potency compared with Aβ” value in assay [1] was “as potently amnestic as Aβ”. For the same substance, in assay [2], the “Trial to criterion, no (mean + SEM)” value was 9.62+0.30 and 9.62 ± 0.30.
